Cneo AK release = causes C. neoformans cell lysis. 0.2% of 360,000 active. AID 651654. lysis activity, % at 15 µM. adenylate kinase release luminescence, 4 h; normalised: neutral wells 0, clomiphene wells 100;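 active means mean lysis activity across replicates of at least 80%, whatever share of replicates individually reach that level; inactive means mean lysis activity below 80%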
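Signal: Adenylate kinase release luminescence | Assay system: Log-phase Cryptococcus neoformans yeast cells | Input: Cells at 5 × 10^6 per mL | Buffer or medium: Fresh YPD growth medium | Compound: Single dose | Schedule: Static 4 h at 37 °C with compound, 1 h detection | Controls: Clomiphene | Read-out: Luminescence rise reflecting yeast cell lysis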
ERp5 inh = blocks human ERp5 reductase activity on insulin | Q15084 | ERp5 insulin aggregation, absorbance 650 nm, 90 min | 0.05% of 350,000 active | inhibition, % at 9.99 µM;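 active means mean replicate inhibition above about 25%, with every replicate also reaching it, limit read from the data, passing the limit was not always enough; inconclusive means only one of those two criteria met; inactive means neither criterion met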
PDI inh = blocks human protein disulfide isomerase activity; P07237; PDI insulin aggregation turbidity, A650, 90 min; inhibition, % at 10 µM; 0.052% of 350,000 active;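 active means mean inhibition across replicates of 30% or more, whatever share of single replicates reach that level; inconclusive means mean inhibition below 30% while every single replicate reaches 30%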
UUG fidelity = alters start codon recognition fidelity in yeast | S. cerevisiae UUG-firefly luciferase reporter, luminescence/redox ratio | activity score, % at 18.7 µM | 350,000 compounds, 0.13% hits | AID 602363;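 active = replicate mean at a twofold rise or more, about +100% in these data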;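 note: firefly luciferase made from a UUG start codon reports start codon fidelity; reporter light over untreated wells divided by growth signal over untreated wells; some hits fall short of that in this replicate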
The depositor's hits bear a star; ? = inconclusive; nt = no result. Hits are enriched below; roughly 0.34% of the tested compounds scored in any of these assays.

Short keys: A = Cneo AK release; B = ERp5 inh; C = PDI inh; D = UUG fidelity
N#Cc1ccc(-c2ccc3c(c2)[C@@H]2[C@@H](CCN2C(=O)Cc2ccccc2)[C@H](CO)N3)cc1
  A = 1	B = -4	C = nt	D = 2

N#Cc1ccc(-c2ccc3c(c2)[C@@H]2[C@@H](CCN2C(=O)Cc2ccccc2)[C@@H](CO)N3)cc1
  A = 89*	B = 1	C = nt	D = 14

N#Cc1ccc(-c2ccc3c(c2)[C@H]2[C@H](CCN2C(=O)Cc2ccccc2)[C@@H](CO)N3)cc1
  A = 95*	B = -7	C = nt	D = 12

N#Cc1ccc(-c2ccc3c(c2)[C@H]2[C@H](CCN2C(=O)Cc2ccccc2)[C@H](CO)N3)cc1
  A = 1	B = -4	C = nt	D = -11

C[C@@H]1CN([C@@H](C)CO)C(=O)Cc2cc(NC(=O)Cn3cnnn3)ccc2O[C@H]1CN(C)Cc1ccc2c(c1)OCO2
  A = -1	B = -4	C = nt	D = 25

C(=Nn1cnnc1)c1ccc2c(c1)CCC2
  A = 82*	B = 0	C = 2	D = 0

Cc1ccc(S(=O)(=O)N(C)C[C@H]2Oc3c(cccc3N(C)C)C(=O)N([C@H](C)CO)C[C@H]2C)cc1
  A = -1	B = 15	C = nt	D = -2

C[C@H](CO)N1C[C@H](C)[C@H](CN(C)S(=O)(=O)c2ccc(F)cc2)Oc2c(NS(=O)(=O)c3ccc(F)cc3)cccc2C1=O
  A = -5	B = -9	C = nt	D = 7

C[C@@H]1CN([C@@H](C)CO)C(=O)c2cccc(NS(=O)(=O)c3ccc(F)cc3)c2O[C@H]1CN(C)S(=O)(=O)c1ccc(Cl)cc1
  A = 110*	B = -6	C = nt	D = 16

C[C@H]1CN([C@@H](C)CO)C(=O)c2cccc(NS(=O)(=O)c3ccccc3)c2O[C@@H]1CN(C)S(=O)(=O)c1ccc(F)cc1
  A = 1	B = nt	C = nt	D = -2

Cc1ccc(S(=O)(=O)N(C)C[C@H]2Oc3c(cccc3N(C)C)C(=O)N([C@@H](C)CO)C[C@H]2C)cc1
  A = 90*	B = 3	C = nt	D = 17

C[C@H](CO)N1C[C@H](C)[C@H](CN(C)C(=O)Nc2ccc(F)cc2)Oc2c(NS(=O)(=O)c3ccccc3)cccc2C1=O
  A = -3	B = 3	C = nt	D = 1

C[C@@H]1CN([C@@H](C)CO)C(=O)c2cccc(NS(=O)(=O)c3ccc(F)cc3)c2O[C@H]1CN(C)S(=O)(=O)c1ccccc1
  A = -4	B = 46*	C = nt	D = 1

C[C@H](CO)N1C[C@H](C)[C@@H](CN(C)C(=O)Nc2ccc(F)cc2)Oc2c(NS(=O)(=O)c3ccccc3)cccc2C1=O
  A = 102*	B = 0	C = nt	D = 26

C[C@H](CO)N1C[C@H](C)[C@@H](CN(C)S(=O)(=O)c2ccccc2)Oc2ncc(-c3cccc(C(=O)N(C)C)c3)cc2C1=O
  A = 6	B = 1	C = nt	D = 14

In a second layout: results already given
C[C@H](CO)N1C[C@H](C)[C@@H](CN(C)C(=O)Nc2ccc(F)cc2)Oc2c(NS(=O)(=O)c3ccccc3)cccc2C1=O
  Cneo AK release: 102*
  ERp5 inh: 0
  PDI inh: nt
  UUG fidelity: 26
C[C@H](CO)N1C[C@H](C)[C@@H](CN(C)S(=O)(=O)c2ccccc2)Oc2ncc(-c3cccc(C(=O)N(C)C)c3)cc2C1=O
  Cneo AK release: 6
  ERp5 inh: 1
  PDI inh: nt
  UUG fidelity: 14

Next part:
Short keys: A = Cneo AK release; B = ERp5 inh; C = PDI inh; D = UUG fidelity
COc1ccc(CN2C[C@H](O)COC[C@@H]3O[C@@H](CC(=O)N4CCc5ccccc5C4)CC[C@H]32)cc1
  A = 2	B = 0	C = nt	D = 0

C[C@H]1CN([C@@H](C)CO)C(=O)c2cc(C#CC3CC3)cnc2O[C@H]1CN(C)C(=O)c1ccccc1
  A = -2	B = 7	C = nt	D = -1

Cc1noc(C)c1S(=O)(=O)Nc1ccc2c(c1)CC(=O)N([C@H](C)CO)C[C@H](C)[C@@H](CN(C)Cc1ccc(C(F)(F)F)cc1)O2
  A = -3	B = 9	C = nt	D = 19

c1ccc(Cn2nnc3c(Nc4ccc5c(c4)OCO5)nc(C4CC4)nc32)cc1
  A = nt	B = nt	C = 66*	D = nt

CC(=O)c1ccc(OCc2cc(C(=O)N3CCC(c4ccncc4)CC3)no2)cc1
  A = -1	B = 2	C = -1	D = -22

CC(=O)c1ccc(OCc2cc(C(=O)N3CCCCC3c3cccnc3)no2)cc1 (stereo unspecified)
  A = -11	B = 10	C = 33*	D = -14

Cc1ccc(NC(=O)c2cccc(S(C)(=O)=O)c2)cc1
  A = nt	B = 26*	C = 7	D = nt

Cc1c(O)ccc2c(CN3CCN(CCO)CC3)cc(=O)oc12
  A = nt	B = nt	C = 53*	D = nt

O=C1NC[C@H](Cc2ccccc2)N(C[C@H]2CCCN2C[C@H](Cc2ccc(O)cc2)N2C[C@H](Cc3ccc(O)cc3)N(CC3CCCCCC3)C(=O)C2=O)C1=O
  A = 3	B = 1	C = 39*	D = -6

O=C1NC[C@H](Cc2ccccc2)N(C[C@H]2CCCN2C[C@H](Cc2ccccc2)N2C[C@H](Cc3ccc(O)cc3)N(CC3CCCCCC3)C(=O)C2=O)C1=O
  A = 0	B = -1	C = ?	D = -10

COC(=O)C[C@H]1C[C@@H]2c3cc(NC(=O)Cc4ccncc4)ccc3O[C@@H]2[C@@H](CO)O1
  A = 1	B = 60*	C = nt	D = -17

O=C(C[C@H]1C[C@@H]2c3cc(NC(=O)c4cccnc4)ccc3O[C@@H]2[C@@H](CO)O1)NCCc1ccccc1
  A = 81*	B = 0	C = nt	D = nt

O=C(C[C@H]1C[C@H]2c3cc(NC(=O)CC4CC4)ccc3O[C@H]2[C@@H](CO)O1)NCc1ccc(-c2ccccc2)cc1
  A = -2	B = 53*	C = nt	D = -4
